# Apparent affinities of Ab-14 variants for a coronavirus HR2 peptide

All variants were tested on one target, the spike HR2 peptide PDVDLGDISGINAS (SARS-CoV-2).

Parent scFv Ab-14: VH joined to VL by the linker GGGGSGGGGSGGGGS. Changes lie in the heavy chain CDRs alone.
VH: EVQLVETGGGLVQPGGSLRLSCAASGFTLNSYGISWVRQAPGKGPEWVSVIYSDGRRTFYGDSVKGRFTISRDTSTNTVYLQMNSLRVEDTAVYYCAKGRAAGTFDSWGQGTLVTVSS
VL: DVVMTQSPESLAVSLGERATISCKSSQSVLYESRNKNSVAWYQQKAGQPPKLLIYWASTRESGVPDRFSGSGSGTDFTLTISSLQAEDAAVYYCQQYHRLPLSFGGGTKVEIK

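This is the validation round: designs drawn from the data on random variants, tested in the same kind of assay. Group labels follow the data file (Ctrl: baseline library sampled from a position-specific scoring matrix, with some repeated check sequences; GP: Gaussian process model; GPLM: also part of the Gaussian process libraries; Gen: genetic algorithm; a sequence that several methods proposed may carry one label only). AlphaSeq pools MATa yeast showing the antibodies with MATalpha yeast showing the peptide. Mating (16 h, 30 °C) was followed by selection of diploids and sequencing of their barcodes. Read counts were normalised to the haploid input and turned into Kd by a linear fit to BCL2-family pairs of known affinity, for each replicate. Mating was done six times.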

Substitutions are numbered in sequence along the VH above, starting at 1 (not Kabat).
Scale: log10 of Kd in nM, estimated from mating counts; low values are strong binders.
A pair that was not seen in that replicate is written "nd"; this usually means weak binding, but a binder can also be missed.
A sequence that the file lists under several names has all its replicates listed entry by entry, parted by semicolons.
The authors' rule: three or more of the six replicates give a measured affinity, fewer mean a poor binder.
Values of this round are not directly comparable with the first-round values of the same sequences.
Of ten entries with the parent sequence, four were seen in most replicates (averages 0.34 to 2.37), three in one and three in none, so single entries are noisy.
As a blank, each scFv also met three strains without target: over all heavy chain designs, 1% of these pairings were detected, typically at 2.08 and seldom below 0.84. The control count says in how many pairings with the empty strains this scFv gave a signal, with their mean in brackets.

changes,group,"log10 Kd, replicates",control signals
T58V+F59A+G61N+K65A+A101D+G103D,Ctrl,nd / nd / nd / nd / nd / nd,0/18
S31L+A102Y+D106C,Ctrl,nd / nd / nd / nd / nd / nd,0/18
G61H+D106A,Ctrl,nd / nd / nd / nd / nd / nd,0/18
L29M+G61A+T104A,Ctrl,nd / nd / 2.91 / nd / nd / nd,0/18
R100D+S107Q,Ctrl,2.78 / 1.80 / 1.89 / 2.62 / 1.42 / 2.10,0/18
S53A+R56M,Ctrl+GPLM_Gen,1.07 / 0.88 / 1.00 / 1.40 / 1.81 / 1.60; 0.34 / -0.22 / -0.07 / -0.10 / -0.14 / 0.14,0/36
A102V,Ctrl,1.43 / 1.55 / 2.32 / 2.19 / 1.37 / 1.75,0/18
F27E+T28K+N30D+R56M,Ctrl,nd / nd / 1.46 / nd / nd / nd,0/18
F27H+S31D,Ctrl,nd / nd / nd / nd / nd / nd,1/18 (1.79)
T28S+R100Y+A101E,Ctrl,nd / 0.92 / 0.85 / 0.85 / 0.85 / 1.25,0/18
G61H+G103T,Ctrl,nd / nd / nd / nd / nd / nd,0/18
T28E+K65S,Ctrl,1.09 / 0.69 / 0.78 / 1.25 / 0.42 / 0.89,1/18 (1.86)
R56M+G99R,Ctrl,nd / nd / 0.70 / 2.04 / 2.22 / 0.55,0/18
G61D+V64Y+G99H+R100K+G103D+T104P+D106M,Ctrl,nd / nd / nd / nd / nd / nd,0/18
S31D+T58V+K65S,Ctrl,nd / nd / -0.21 / 0.42 / 1.00 / 0.39,0/18
R100A,Ctrl,0.24 / -0.06 / nd / nd / nd / nd,0/18
F27A+N30D+I51G+D62G+R100S+G103L,Ctrl,nd / nd / nd / nd / nd / nd,0/18
R100E+G103W,Ctrl,nd / nd / nd / nd / nd / nd,0/18
G26D+R100T+T104L+D106S,Ctrl,nd / nd / nd / nd / nd / nd,1/18 (3.69)
T28N+S31Q,Ctrl,1.26 / 0.66 / 0.29 / 0.25 / 0.77 / 1.22,0/18
F105S+S107Q,Ctrl,nd / nd / nd / nd / nd / nd,1/18 (0.17)
N30S+S31K+K65R+R100K,Ctrl,nd / nd / nd / 2.05 / nd / nd,0/18
S31E+R100N,Ctrl,0.81 / 0.70 / 0.33 / 1.59 / 0.15 / 1.60,0/18
A102S+T104P,Ctrl,nd / nd / nd / nd / nd / nd,0/18
T28D+G61T+A101Q,Ctrl+GP_Gen,0.78 / 0.34 / 0.71 / 0.16 / 0.50 / 0.47; 0.61 / -0.03 / 0.16 / 0.09 / 0.14 / 0.04,0/36
G61S+A102N+G103T+F105T,Ctrl,1.02 / nd / nd / 1.81 / 2.40 / 2.63,1/18 (1.73)
Y60I+R100H,Ctrl,nd / nd / nd / 1.09 / nd / nd,0/18
G61I+D62G,Ctrl,nd / nd / nd / nd / nd / nd,0/18
L29I+F59A+G99E+R100M,Ctrl,nd / 3.11 / 4.68 / nd / nd / nd,0/18
F27E+L29I+S35Y+R56K+F59A+G99C+D106V,Ctrl,nd / nd / nd / nd / nd / nd,0/18
F27Q+A101E+G103K,Ctrl,nd / nd / nd / 2.49 / nd / nd,0/18
N30E+S107K,Ctrl,nd / 3.02 / nd / 2.97 / nd / 2.17,1/18 (1.79)
F27N+R56E+F59A+R100M+S107L,Ctrl,nd / 1.77 / nd / 1.88 / nd / 2.91,0/18
R100P+A101I,Ctrl,1.16 / 0.88 / 0.64 / 2.05 / 2.66 / 2.08,2/18 (1.57)
N30Q+G61H+F105A,Ctrl,nd / nd / nd / nd / nd / nd,0/18
D62T+A102V,Ctrl,nd / nd / nd / nd / nd / nd,0/18
T28E+Y60M+G103A,Ctrl,nd / nd / nd / nd / nd / nd,0/18
A101V+D106E,Ctrl,nd / 0.49 / 2.21 / 2.03 / 2.15 / 2.23,1/18 (1.90)
G26K+S35H+G61H+G99C+S107V,Ctrl,nd / nd / nd / nd / nd / nd,0/18
T28S+S53A,Ctrl+GPLM_Gen,-0.38 / 0.21 / -0.52 / -0.30 / -0.02 / -0.32; 1.80 / 0.04 / 0.07 / -0.34 / -0.18 / 0.69,0/36
G61S+D106S,Ctrl,2.17 / nd / 1.51 / 1.62 / nd / 1.69,0/18
S31D+R56L+A101E+A102G,Ctrl,nd / nd / 0.68 / nd / 0.74 / nd,0/18
G61I+T104F,Ctrl,nd / nd / nd / nd / nd / nd,0/18
G26H+T28N+S31E+G103L+D106C,Ctrl,nd / nd / nd / nd / nd / nd,0/18
T28W+G61S,Ctrl,1.79 / nd / 1.17 / 1.24 / 1.72 / 1.68,1/18 (1.96)
R56V+T58E,Ctrl,nd / nd / nd / nd / nd / nd,0/18
N30E+F59I+K65D,Ctrl,nd / 2.07 / nd / nd / nd / 2.38,0/18
G61I+T104R,Ctrl,nd / nd / nd / nd / nd / nd,1/18 (2.42)

Excerpt, the final 7 entries:

changes	group	log10 Kd, replicates	control signals
S31D+R56L+A101E+A102G	Ctrl	nd / nd / 0.68 / nd / 0.74 / nd	0/18
G61I+T104F	Ctrl	nd / nd / nd / nd / nd / nd	0/18
G26H+T28N+S31E+G103L+D106C	Ctrl	nd / nd / nd / nd / nd / nd	0/18
T28W+G61S	Ctrl	1.79 / nd / 1.17 / 1.24 / 1.72 / 1.68	1/18 (1.96)
R56V+T58E	Ctrl	nd / nd / nd / nd / nd / nd	0/18
N30E+F59I+K65D	Ctrl	nd / 2.07 / nd / nd / nd / 2.38	0/18
G61I+T104R	Ctrl	nd / nd / nd / nd / nd / nd	1/18 (2.42)

Values reported by Li et al. 2023, doi:10.1038/s41467-023-39022-2 (FLAb copy).